Laboratory results: PMC9571290, “Preliminary Structure–Activity Relationship Study of the MMV Pathogen Box Compound MMV675968 (2,4-Diaminoquinazoline) Unveils Novel Inhibitors of Trypanosoma brucei brucei” (Molecules, 2022)

Assay: cytotoxicity against Vero cells (resazurin viability assay)
Details: African green monkey
Procedure: The resulting pellet was resuspended and counted in a Neubauer chamber in the presence of trypan blue to exclude nonviable cells colored in blue. Once the cell load was estimated, they were either used for the next passage in a new flask or processed for the cytotoxicity assay.
Briefly, Vero cells at a density of 10^4 cells per well were plated in 100 µL of complete DMEM and incubated overnight to allow cell attachment. Plates were then controlled under an inverted fluorescence microscope (Lumascope LS520) to ensure adherence, sterility and cell integrity. Thereafter, culture medium from each well was carefully emptied, and plates were filled with 90 µL of fresh complete medium followed by the addition of 10 µL of serial 5-fold dilutions of compound solutions. […] Fluorescence was then read using a Magelan Infinite M200 fluorescence multiwell plate reader (Tecan) with excitation and emission wavelengths of 530 and 590 nm, respectively. The percentage of cell viability was calculated from readouts, and the median cytotoxic concentration (CC50) for each compound was deduced from concentration–response curves using GraphPad Prism 8.0 software as described above. Selectivity indexes were then determined for each test substance as follows: SI = CC50(Vero cells)/IC50(T. brucei brucei).

SMILES: COc1cc(NC(C)CCCN)c2ncccc2c1 (stereo not shown) [MMV000023, Primaquine, reference compound]
- CC50 at 48 h: 43.3 ± 0.4 µM
